## Antibody variant affinities, Ab-14 light chain, assay B

Reference: Li et al. 2023, doi:10.1038/s41467-023-39022-2. File: FLAb, binding data.

The target is the same throughout: PDVDLGDISGINAS, from the HR2 region of SARS-CoV-2 spike.

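The parent was found by panning a naive human phage display library on the peptide. This is the validation round: designs drawn from the data on random variants, tested in the same kind of assay. Group labels follow the data file (En: ensemble of fine-tuned language models; GP: Gaussian process model; HC: hill climbing; Gen: genetic algorithm; Gibbs: Gibbs sampling; a sequence that several methods proposed may carry one label only). AlphaSeq pools MATa yeast showing the antibodies with MATalpha yeast showing the peptide. After mating in shaken culture at 30 °C for 16 h, diploids were selected and their barcode pairs sequenced. The ratio of observed to expected reads was calibrated, replicate by replicate, on BCL2-family standards whose Kd was known from biolayer interferometry. Each pool was mated in six replicate cultures.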

Each scFv is VH, a 15-residue (Gly4Ser)3 linker, VL, as in the parent Ab-14, and differs from it in the CDRs of the light chain only.
VH: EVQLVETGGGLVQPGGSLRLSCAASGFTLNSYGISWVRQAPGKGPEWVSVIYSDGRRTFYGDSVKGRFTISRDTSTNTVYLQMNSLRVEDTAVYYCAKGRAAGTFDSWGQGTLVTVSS
VL: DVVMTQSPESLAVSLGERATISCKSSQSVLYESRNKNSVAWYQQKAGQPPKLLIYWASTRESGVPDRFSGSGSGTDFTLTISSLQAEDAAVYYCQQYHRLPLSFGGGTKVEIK

Each variant's VL is given in full.
This list holds designs with more than six substitutions.
Values are apparent Kd, the geometric mean of the replicates that gave a signal; lower means stronger binding.
Where no diploid with the target was found in any replicate, the entry reads "no signal": below detection, most likely a poor binder, though not proof of it.
The authors' rule: three or more of the six replicates give a measured affinity, fewer mean a poor binder.

VL,group,apparent Kd,replicates with signal,empty controls
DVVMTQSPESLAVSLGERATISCHLSHMSGVESVKHNSVAWYQQKAGQPPKLLIYENSTRANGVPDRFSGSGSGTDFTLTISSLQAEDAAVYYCQQYDRLPLAFGGGTKVEIK,En_Gen,230 nM,6/6,2/18
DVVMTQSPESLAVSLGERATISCKLTSHEWHGTADNSAMAWYQQKAGQPPKLLIYNAQVSHDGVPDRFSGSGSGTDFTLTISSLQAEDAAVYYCQQYSRLPLAFGGGTKVEIK,En_Gibbs,5.6 nM,6/6,0/18
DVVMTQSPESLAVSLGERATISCMISQLMNMGQFAINSVAWYQQKAGQPPKLLIYQAQIRNQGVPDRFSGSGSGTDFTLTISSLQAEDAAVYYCQQYDRLPLAFGGGTKVEIK,En_Gen,2.8 nM,1/6,0/18
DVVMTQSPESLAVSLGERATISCSLGTSTLEESRNKNSVAWYQQKAGQPPKLLIYEMSLRESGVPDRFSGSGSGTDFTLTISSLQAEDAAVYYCQSYNRLPLSFGGGTKVEIK,En_HC,2.7 nM,6/6,1/18
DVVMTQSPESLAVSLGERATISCTISQMFLGESYNRNSVAWYQQKAGQPPKLLIYQASTRESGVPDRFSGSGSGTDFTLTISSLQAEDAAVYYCQSYHRLPLSFGGGTKVEIK,En_HC,640 pM,6/6,2/18
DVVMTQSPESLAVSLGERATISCKLSQSMGYEERNKNSVAWYQQKAGQPPKLLIYNASQRMSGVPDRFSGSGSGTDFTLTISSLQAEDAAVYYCQQYHRLPLSFGGGTKVEIK,GP_Gibbs,540 pM,6/6,0/18
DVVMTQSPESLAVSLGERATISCKIGATLNMMSHKKNNVAWYQQKAGQPPKLLIYDLVTREQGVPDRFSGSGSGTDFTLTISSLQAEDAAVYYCQQYHRLPLSFGGGTKVEIK,En_Gen,6.3 nM,6/6,0/18
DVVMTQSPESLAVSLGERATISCKLGMWMYGPTEAKYAVAWYQQKAGQPPKLLIYQDEMRVHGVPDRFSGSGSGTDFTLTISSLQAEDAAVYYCQQYDRLPLIFGGGTKVEIK,En_Gibbs,no signal,0/6,0/18
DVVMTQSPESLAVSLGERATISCHMSVLTLQGMRHRNSVAWYQQKAGQPPKLLIYQMTTRENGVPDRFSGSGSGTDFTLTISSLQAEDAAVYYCQQYDRLPLSFGGGTKVEIK,En_Gen,200 nM,6/6,4/18
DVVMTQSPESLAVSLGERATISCIVSQLMLWGLHAKNSIAWYQQKAGQPPKLLIYEAQTRLNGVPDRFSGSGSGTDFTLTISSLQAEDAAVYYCQQYERLPLFFGGGTKVEIK,En_Gen,20 nM,5/6,0/18
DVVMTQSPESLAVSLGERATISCTLYGLSMSMSKNKNNVAWYQQKAGQPPKLLIYEMTTREKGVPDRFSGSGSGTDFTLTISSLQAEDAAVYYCQQYDRLPLIFGGGTKVEIK,En_Gen,7.2 nM,6/6,0/18
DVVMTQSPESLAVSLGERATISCMYSQSYLGEQRNKNSVAWYQQKAGQPPKLLIYNASTREEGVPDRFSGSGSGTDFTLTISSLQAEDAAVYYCQQYHRLPLSFGGGTKVEIK,GP_Gibbs,3.9 nM,6/6,0/18
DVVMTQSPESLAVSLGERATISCKLQMSMLYESRMMNSVAWYQQKAGQPPKLLIYDASVRESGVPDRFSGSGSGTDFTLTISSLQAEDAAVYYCQQYHRLPLSFGGGTKVEIK,GP_Gibbs,540 pM,6/6,0/18
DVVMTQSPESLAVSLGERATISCTLYGLTNSMSKSKDNVAWYQQKAGQPPKLLIYEMSTREAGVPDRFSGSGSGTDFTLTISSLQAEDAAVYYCQQYDRLPLMFGGGTKVEIK,En_Gen,8.4 nM,6/6,2/18

2 of these entries, quoted again:

VL	group	apparent Kd	replicates with signal	empty controls
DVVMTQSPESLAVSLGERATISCTLYGLTNSMSKSKDNVAWYQQKAGQPPKLLIYEMSTREAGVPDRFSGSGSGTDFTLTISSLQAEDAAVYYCQQYDRLPLMFGGGTKVEIK	En_Gen	8.4 nM	6/6	2/18
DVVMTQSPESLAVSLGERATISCKLQMSMLYESRMMNSVAWYQQKAGQPPKLLIYDASVRESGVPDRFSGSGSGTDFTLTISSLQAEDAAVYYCQQYHRLPLSFGGGTKVEIK	GP_Gibbs	540 pM	6/6	0/18

Values of this round are not directly comparable with the first-round values of the same sequences.
Empty control strains, which show no peptide, gave a signal in 4% of pairings with all light chain designs; the median was 430 nM and 95% of these signals were weaker than 38 nM. No background was subtracted. For each scFv, signals with the empty controls are counted beside the result.